The target in test [1] is T1, human receptor cubilin expressed on CHO cells (human, UniProt O60494 36-3623).
T1 construct: also called mock cells, expressing cubilin; control cells
Description: uptake of Alexa Fluor 488 labelled Hp(2-2)-Hb by CHO cells, confocal microscopy.

Amino acid sequences for entries named in this document (tags omitted). Residues count along the entry.
UniProt O60494, 36-3623 limits assumed: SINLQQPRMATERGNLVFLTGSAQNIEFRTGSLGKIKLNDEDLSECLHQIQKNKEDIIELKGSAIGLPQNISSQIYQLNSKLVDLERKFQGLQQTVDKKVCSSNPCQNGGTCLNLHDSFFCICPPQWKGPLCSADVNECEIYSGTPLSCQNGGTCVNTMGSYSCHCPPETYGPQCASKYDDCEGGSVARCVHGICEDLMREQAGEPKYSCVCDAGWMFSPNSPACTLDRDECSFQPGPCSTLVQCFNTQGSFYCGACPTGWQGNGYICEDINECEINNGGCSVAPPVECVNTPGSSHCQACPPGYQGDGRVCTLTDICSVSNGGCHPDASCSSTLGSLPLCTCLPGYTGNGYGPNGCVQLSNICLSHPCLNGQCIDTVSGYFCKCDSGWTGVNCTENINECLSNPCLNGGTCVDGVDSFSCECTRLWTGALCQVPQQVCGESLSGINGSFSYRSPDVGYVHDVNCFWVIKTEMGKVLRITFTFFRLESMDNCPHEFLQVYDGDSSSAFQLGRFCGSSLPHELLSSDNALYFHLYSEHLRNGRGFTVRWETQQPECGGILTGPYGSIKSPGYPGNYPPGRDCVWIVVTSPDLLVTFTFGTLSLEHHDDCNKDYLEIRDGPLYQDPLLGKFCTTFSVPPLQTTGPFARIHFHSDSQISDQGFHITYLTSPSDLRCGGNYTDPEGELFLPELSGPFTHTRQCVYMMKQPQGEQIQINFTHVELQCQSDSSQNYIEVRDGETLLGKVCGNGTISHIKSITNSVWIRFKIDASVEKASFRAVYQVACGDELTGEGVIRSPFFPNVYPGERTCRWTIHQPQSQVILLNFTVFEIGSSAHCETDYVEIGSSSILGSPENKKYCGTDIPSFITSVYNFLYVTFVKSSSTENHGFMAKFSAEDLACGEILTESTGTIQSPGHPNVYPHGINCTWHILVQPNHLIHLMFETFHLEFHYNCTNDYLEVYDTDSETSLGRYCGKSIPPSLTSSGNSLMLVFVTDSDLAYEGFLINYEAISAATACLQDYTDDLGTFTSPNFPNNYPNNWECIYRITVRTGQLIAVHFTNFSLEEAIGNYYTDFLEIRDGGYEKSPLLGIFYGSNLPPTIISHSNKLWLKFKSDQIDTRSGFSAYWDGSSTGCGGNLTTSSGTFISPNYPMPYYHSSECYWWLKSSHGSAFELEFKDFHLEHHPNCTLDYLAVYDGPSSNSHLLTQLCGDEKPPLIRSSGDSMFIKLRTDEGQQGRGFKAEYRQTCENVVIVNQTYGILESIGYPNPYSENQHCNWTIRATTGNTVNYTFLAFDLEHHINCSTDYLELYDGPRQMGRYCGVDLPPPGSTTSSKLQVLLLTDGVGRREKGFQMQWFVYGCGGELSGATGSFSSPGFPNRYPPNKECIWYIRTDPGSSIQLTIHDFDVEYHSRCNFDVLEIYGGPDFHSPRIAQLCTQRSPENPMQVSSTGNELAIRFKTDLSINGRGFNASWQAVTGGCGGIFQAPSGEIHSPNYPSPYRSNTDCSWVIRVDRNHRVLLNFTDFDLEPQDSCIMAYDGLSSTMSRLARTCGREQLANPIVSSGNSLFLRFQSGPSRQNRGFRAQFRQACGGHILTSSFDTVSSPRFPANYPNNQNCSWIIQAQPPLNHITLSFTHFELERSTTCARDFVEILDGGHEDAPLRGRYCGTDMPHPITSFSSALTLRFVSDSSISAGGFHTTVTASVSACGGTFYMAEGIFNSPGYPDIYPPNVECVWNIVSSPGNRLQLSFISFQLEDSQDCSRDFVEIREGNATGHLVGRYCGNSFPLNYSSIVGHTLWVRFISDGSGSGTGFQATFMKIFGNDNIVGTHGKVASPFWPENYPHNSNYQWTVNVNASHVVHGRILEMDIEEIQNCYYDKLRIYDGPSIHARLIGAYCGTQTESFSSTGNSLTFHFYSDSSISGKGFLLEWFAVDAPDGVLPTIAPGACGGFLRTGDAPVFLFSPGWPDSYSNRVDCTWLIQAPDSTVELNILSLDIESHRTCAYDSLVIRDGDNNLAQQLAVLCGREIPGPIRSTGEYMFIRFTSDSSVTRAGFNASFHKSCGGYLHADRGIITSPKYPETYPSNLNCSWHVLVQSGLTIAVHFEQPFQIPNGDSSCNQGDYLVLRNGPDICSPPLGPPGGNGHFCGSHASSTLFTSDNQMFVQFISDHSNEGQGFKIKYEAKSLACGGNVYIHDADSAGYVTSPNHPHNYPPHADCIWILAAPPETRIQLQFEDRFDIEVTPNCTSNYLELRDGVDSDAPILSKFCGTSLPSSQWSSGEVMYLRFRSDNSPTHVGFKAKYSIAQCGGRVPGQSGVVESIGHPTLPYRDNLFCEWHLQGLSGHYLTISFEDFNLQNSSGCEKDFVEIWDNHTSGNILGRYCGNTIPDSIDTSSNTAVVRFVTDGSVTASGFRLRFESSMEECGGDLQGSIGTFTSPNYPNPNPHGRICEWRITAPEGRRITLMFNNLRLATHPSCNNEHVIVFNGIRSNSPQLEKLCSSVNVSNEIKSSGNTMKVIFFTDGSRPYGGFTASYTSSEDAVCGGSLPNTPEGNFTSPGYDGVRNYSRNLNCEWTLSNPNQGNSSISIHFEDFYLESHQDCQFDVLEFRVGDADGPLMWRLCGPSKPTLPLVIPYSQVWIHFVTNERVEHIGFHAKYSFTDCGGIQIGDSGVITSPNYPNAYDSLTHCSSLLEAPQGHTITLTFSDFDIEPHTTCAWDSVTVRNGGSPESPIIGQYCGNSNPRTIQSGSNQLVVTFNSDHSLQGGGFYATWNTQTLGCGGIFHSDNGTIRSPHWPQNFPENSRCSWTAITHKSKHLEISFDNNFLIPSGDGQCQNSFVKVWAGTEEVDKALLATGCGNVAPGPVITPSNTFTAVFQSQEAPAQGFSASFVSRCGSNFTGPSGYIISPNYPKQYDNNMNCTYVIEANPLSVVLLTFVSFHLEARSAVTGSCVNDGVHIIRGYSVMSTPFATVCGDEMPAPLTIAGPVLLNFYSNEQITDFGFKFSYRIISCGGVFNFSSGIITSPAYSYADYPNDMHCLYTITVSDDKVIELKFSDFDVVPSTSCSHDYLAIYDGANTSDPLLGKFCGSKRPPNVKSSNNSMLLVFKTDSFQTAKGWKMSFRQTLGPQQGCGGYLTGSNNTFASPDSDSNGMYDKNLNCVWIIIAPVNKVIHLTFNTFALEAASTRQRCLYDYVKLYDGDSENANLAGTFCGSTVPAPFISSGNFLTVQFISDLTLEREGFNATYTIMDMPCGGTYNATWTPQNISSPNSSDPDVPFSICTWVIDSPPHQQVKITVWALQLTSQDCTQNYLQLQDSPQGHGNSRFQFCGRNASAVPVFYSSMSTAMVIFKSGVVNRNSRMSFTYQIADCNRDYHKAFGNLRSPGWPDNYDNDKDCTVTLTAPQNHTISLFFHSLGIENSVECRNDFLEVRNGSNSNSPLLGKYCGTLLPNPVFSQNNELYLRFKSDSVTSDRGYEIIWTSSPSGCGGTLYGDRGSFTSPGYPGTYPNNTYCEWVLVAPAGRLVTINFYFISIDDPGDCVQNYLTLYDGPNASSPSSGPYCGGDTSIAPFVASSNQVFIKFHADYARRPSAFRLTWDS

In test [2] the target is T2, human CD163, ligand-affinity purified from Triton X-100 solubilised human spleen, placenta and liver membranes (human, UniProt Q86VB7 42-1156).
T2 construct: mature; Natural receptor purified from tissue membranes on Hp-Hb Sepharose; immobilised on BIAcore CM5 chips or in microtiter wells; also called HbSR; Hp-Hb receptor
Briefly: solid phase competition on CD163 in microtiter wells.

Test [3] concerns the target T2, human CD163, ligand-affinity purified …. Description: solid phase competition, 125I-Hp(2-2)-Hb on CD163 in microtiter wells.
Test [4] has the same target. Description: apparent Kd from solid phase competition on CD163 in microtiter wells, on an assumed 2-2 multimer distribution.
Test [5] deals with Hp-Hb complexes (Hp of mixed phenotypes or phenotype not specified) (human, UniProt P00738 19-406). Description: Hp-Hb affinity chromatography.

B1: Hp(2-2)-Hb complex (multimeric haptoglobin-haemoglobin complex, Hb form A0) (other)
chain 1: VDSGNDVTDIADDGCPKPPEIAHGYVEHSVRYQCKNYYKLRTEGDGVYTLNDKKQWINKAVGDKLPECEADDGCPKPPEIAHGYVEHSVRYQCKNYYKLRTEGDGVYTLNNEKQWINKAVGDKLPECEAVCGKPKNPANPVQRILGGHLDAKGSFPWQAKMVSHHNLTTGATLINEQWLLTTAKNLFLNHSENATAKDIAPTLTLYVGKKQLVEIEKVVLHPNYSQVDIGLIKLKQKVSVNERVMPICLPSKDYAEVGRVGYVSGWGRNANFKFTDHLKYVMLPVADQDQCIRHYEGSTVPEKKTPKSPVGVQPILNEHTFCAGMSKYQEDTCYGDAGSAFAVHDLEEDTWYATGILSFDKSCAVAEYGVYVKVTSIQDWVQKTIAEN
chain 2: not shown
chain 3: not shown
A word on the IC50: it is the concentration at which inhibition is half-maximal. For the molecule B1, the binding result in test [1] was “no binding (tested: 0.1 µM)”. Further, the “fold higher functional affinity (avidity) against Hp(1-1)-Hb” value in test [2] was around 10 fold. The molecule also displayed an IC50 in test [3] of around 0.1 µg/mL. The Kd in test [4] was around 0.2 nM.

B2: recombinant HbSR fragment corresponding to SRCR domain 5-9 (receptor)
chain: not shown
notes: domain: SRCR domain 5-9; Expressed in CHO-K1 cells from pSecTag2B; also called HbSR SRCR 5-9; HbSR SRCR domain 5-9
Turning to B2, the binding result in test [5] was “no binding”.

(Values after US20020155995A1 (published 2002).)
